Results taken from US4335213A (priority 1979, dated 1982).

Settings: pH 7

## galactose oxidase
  Heat stability: loss of activity: about 90%
  Heat stability: temperature up to which stable: up to 50 °C
